TDP1 inh = TDP1 (human) enzyme inhibition | Q9NUW8 | recombinant TDP1, AlphaScreen DNA substrate cleavage | Potency, µM (doses to about 130 µM), for inactives: top-dose activity change, negative = inhibition, hits mostly inhibitors | hit rate 0.28% among 350,000 | AID 485290; also: potency is read from the fitted curve at half-maximal effect; % is scaled to controls: 0 for no effect and ±100 for the full control effect; nearly all actives have a fitted effect of over 40% in size
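Here, a 5' biotin and 3' phosphotyrosine-FITC DNA oligonucleotide reports Tdp1 activity: intact substrate bridges AlphaScreen beads, while cleavage leaves a 3' phosphate and drops signal. All incubations at room temperature.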
uPA surface inh = cell surface uPA generation inhibition | cell surface uPA generation assay, qHTS | Potency, µM (series often up to 38.3 µM), for the others: at the top dose activity change, negative = inhibition, hits mostly inhibitors | hit rate 0.31% among 330,000; active = well fitted inhibition curve with a large enough effect; inconclusive = small, poorly fitted or top-dose-only effect; inactive = no such curve, though single readings can be large or run the other way; tested in mouse RAW 264.7 cells; also: potency is read from the fitted curve at half-maximal effect; % is scaled to controls: 0 for no effect and ±100 for the full control effect; nearly all actives have a fitted effect of over 55% in size
miR-21 FLuc = raises the signal of a miR-21 reporter | Potency, µM (doses to about 38.3 µM), for inactives: top-dose reporter change, positive = more light | HeLa miR-21 FLuc reporter, luciferase, 48 h | AID 2288 | 340,000 tested, under 10 active; active = well fitted rising curve with a large enough effect; inconclusive = small, poorly fitted or top-dose-only effect; inactive = no such curve, though single readings can be large or run the other way;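 also: % of control where 0% means no effect; miR-21 action dims this reporter so a rising signal means less miR-21 action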
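Compounds were titrated across several concentrations (up to approximately 40 uM) and incubated 48 hours with HeLa miR-21-FLuc reporter cells (miR-21 target sequence downstream of FLuc, endogenous miR-21). Readout was firefly luciferase luminescence after lytic detection reagent.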
TDP1 cell CPT = growth inhibition of DT40 Tdp1-/-;hTDP1 cells with camptothecin (screen for TDP1 inhibitors); hit rate 12% among 420,000; chicken DT40 Tdp1-/-;hTDP1 cells + 20 nM CPT, ATP luminescence, 48 h; Potency, µM (series often up to 46.2 µM), for inactives: at the highest dose activity change, negative = growth inhibition, actives largely listed as inhibitors; also: potency is read from the fitted curve at half-maximal effect; % is scaled to controls: 0 for no effect and ±100 for the full control effect; nearly all actives have a fitted effect of over 55% in size
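Chicken DT40 Tdp1-/- cells stably complemented with human TDP1 were seeded at 400 cells/well in medium containing 20 nM camptothecin, exposed to pin-transferred compounds, and grown at 37 °C for at least 48 hr. Viability was read as ATP luminescence.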
DT40 TDP1 no CPT = qHTS for Inhibitors of human tyrosyl-DNA phosphodiesterase 1 (TDP1): qHTS in cells in absence of CPT. DT40 Tdp1-/- hTDP1 cells, no CPT, ATP luminescence, 48 h. Potency, µM (doses to about 46.2 µM), for the others: at the top dose activity change, negative = growth inhibition, most hits filed as inhibitors. hit rate 15% among 420,000; also: potency is read from the fitted curve at half-maximal effect; % is scaled to controls: 0 for no effect and ±100 for the full control effect; nearly all actives have a fitted effect of over 55% in size
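Cells were dispensed at 400 per well, compounds added by pin tool, plates incubated ≥48 hr at 37 °C, then CellTiter-Glo added for 30 min at room temperature before luminescence reading. Line: DT40 Tdp1-/- complemented with hTDP1; camptothecin omitted.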
Starred values were filed as active, the others as inactive; ? = inconclusive; · = not tested or not shown. Sampled rows, rich in hits. Any-hit rate of the full collection: about 16%. Unless noted, calls follow the shape of the dose curve; as a rule, active = well fitted curve in the direction sought with a large enough effect; inconclusive = small, poorly fitted or top-dose-only effect, or another doubt; inactive = no such curve, though single readings can be large; an effect the other way counts as inactive or inconclusive.

Screens by letter: A = TDP1 inh; B = uPA surface inh; C = miR-21 FLuc; D = TDP1 cell CPT; E = DT40 TDP1 no CPT
SMILES: Fc1ccc(Br)cc1C1C=C(c2ccc(Br)cc2)Nc2nnnn21 (configuration not stated)
  A: 9.5% | B: · | C: -7.0% | D: ? | E: 23.1µM*
SMILES: COc1ccc(C2C=C(c3ccc(Br)cc3)Nc3nnnn32)c(OC)c1 (configuration not stated)
  A: 3.8% | B: · | C: -40.3% | D: -98.1% | E: 23.1µM*
SMILES: CCc1ccc(C2=CC(c3cc(Br)ccc3F)n3ncnc3N2)cc1 (configuration not stated)
  A: 2.6% | B: · | C: -10.3% | D: 23.1µM* | E: 18.4µM*
SMILES: COc1cccc(C2=CC(c3cccs3)n3nnnc3N2)c1 (configuration not stated)
  A: 3.4% | B: -14.3% | C: -1.7% | D: 2.31µM* | E: 3.26µM*
SMILES: Cc1cc(NC(=O)COc2cccc([N+](=O)[O-])c2)no1
  A: 1.7% | B: 6.7% | C: -9.8% | D: 1.9% | E: 7.8%
SMILES: CC(=O)c1ccc(N2CCN(C(=S)Nc3cccc(F)c3)CC2)cc1
  A: 4.8% | B: -6.1% | C: -11.5% | D: ? | E: 14.6µM*
SMILES: Fc1cccc(NC(=S)N2CCCC2)c1
  A: 0.0% | B: 0.7% | C: -4.2% | D: 27.3% | E: -7.0%
SMILES: COc1ccc(N2CCN(C(=S)Nc3ccccc3)CC2)cc1
  A: · | B: 0.7% | C: 5.0% | D: -14.6% | E: -16.3%
SMILES: CC(=O)c1ccc(N2CCN(C(=S)Nc3ccc(Oc4ccccc4)cc3)CC2)cc1
  A: 5.3% | B: -11.0% | C: 26.2% | D: ? | E: 7.31µM*
SMILES: COC(=O)Cc1ccc(NC(=S)N2CCN(c3ccc(F)cc3)CC2)cc1
  A: 2.6% | B: -4.3% | C: 1.0% | D: 11.6µM* | E: 5.17µM*

Screens by letter: A = TDP1 inh; B = uPA surface inh; C = miR-21 FLuc; D = TDP1 cell CPT; E = DT40 TDP1 no CPT
SMILES: O=C(C[C@@H]1C[C@H]2c3cc(NC(=O)Nc4ccccc4F)ccc3O[C@H]2[C@H](CO)O1)NCC(F)(F)F
  A: · | B: · | C: · | D: -2.5% | E: -23.8%
SMILES: Cc1ccc(S(=O)(=O)N2CCCCC2)cc1NC(=S)NC(=O)c1ccco1
  A: 6.0% | B: 9.6% | C: 1.3% | D: ? | E: ?
SMILES: CCCS(=O)(=O)NC(=O)C1(C)CCCN(C(=O)c2cc(OC)c(OC)c(OC)c2)C1 (configuration not stated)
  A: · | B: · | C: · | D: 4.0% | E: -16.9%
SMILES: CCN(CC)C(=O)Cn1cc(C(=O)C(=O)Nc2ccc3c(c2)OCCO3)c2ccccc21
  A: 1.7% | B: -10.6% | C: -11.4% | D: 18.4µM* | E: 23.1µM*
SMILES: O=C(Nc1ccc2c(c1)OCCO2)C(=O)c1c[nH]c2ccccc12
  A: 3.8% | B: -19.2% | C: 17.2% | D: 10.3µM* | E: ?
SMILES: CN(C(=O)c1cccc(NC(=O)Cc2ccc(NC(=O)C3CCCN(C(=O)C4CCCCC4)C3)cc2)c1)C1CCC1 (configuration not stated)
  A: · | B: 11.3% | C: · | D: ? | E: ?
SMILES: CN(C(=O)c1cccc(NC(=O)Cc2ccc(NC(=O)C3CCCN(C(=O)CCc4ccccc4)C3)cc2)c1)C1CCC1 (configuration not stated)
  A: · | B: ? | C: · | D: ? | E: 14.6µM*
SMILES: CN(Cc1ccccc1)C(=O)c1ccc(NC(=O)Cc2cccc(NC(=O)C3CCCN(C(=O)CCc4ccccc4)C3)c2)cc1 (configuration not stated)
  A: 0.7% | B: -2.0% | C: · | D: ? | E: ?
SMILES: CN(C(=O)c1ccc(NC(=O)Cc2cccc(NC(=O)C3CCCN(C(=O)CCc4ccccc4)C3)c2)cc1)C1CCCC1 (configuration not stated)
  A: -2.0% | B: 3.8% | C: · | D: 29.1µM* | E: ?
SMILES: CN(C(=O)c1cccc(NC(=O)Cc2ccc(NC(=O)C3CCCN(C(=O)CCc4ccccc4)C3)cc2)c1)C1CCCC1 (configuration not stated)
  A: · | B: ? | C: · | D: ? | E: 16.4µM*

Screens by letter: A = TDP1 inh; B = uPA surface inh; C = miR-21 FLuc; D = TDP1 cell CPT; E = DT40 TDP1 no CPT
SMILES: CN(Cc1ccccc1)C(=O)c1cccc(NC(=O)Cc2ccc(NC(=O)C3CCCN(C(=O)CCc4ccccc4)C3)cc2)c1 (configuration not stated)
  A: · | B: -19.2% | C: · | D: 23.1µM* | E: 14.6µM*
SMILES: Cn1cnnc1SCC(=O)Nc1nc(-c2ccc(F)cc2)cs1
  A: 1.2% | B: -0.9% | C: -3.7% | D: -8.9% | E: -28.2%
SMILES: Cc1c(C)c2c(OCC(=O)N3CCC(C(=O)O)CC3)cc3c(c2oc1=O)CCC(C)(C)O3
  A: · | B: -2.0% | C: -8.7% | D: -17.0% | E: -11.0%
SMILES: CN(Cc1ccccc1)C(=O)c1cccc(NC(=O)Cc2ccc(NC(=O)C3CCN(S(=O)(=O)c4cccc([N+](=O)[O-])c4)CC3)cc2)c1
  A: · | B: 11.5% | C: · | D: -25.9% | E: -26.9%
SMILES: CN(Cc1ccccc1)C(=O)c1ccc(NC(=O)Cc2ccc(NC(=O)C3CCN(S(=O)(=O)c4cccc([N+](=O)[O-])c4)CC3)cc2)cc1
  A: · | B: 0.1% | C: · | D: 13µM* | E: ?
SMILES: CN(Cc1ccccc1)C(=O)c1cccc(NC(=O)Cc2ccc(NC(=O)C3CCN(C(=O)C4CCCC4)CC3)cc2)c1
  A: · | B: 9.7% | C: · | D: ? | E: ?
SMILES: CN(Cc1ccccc1)C(=O)c1cccc(NC(=O)Cc2ccc(NC(=O)C3CCCN(C(=O)C4CCCCC4)C3)cc2)c1 (configuration not stated)
  A: · | B: -1.5% | C: · | D: 16.4µM* | E: ?
SMILES: CN(C(=O)c1ccc(NC(=O)Cc2ccc(NC(=O)C3CCCN(C(=O)CCc4ccccc4)C3)cc2)cc1)C1CC1 (configuration not stated)
  A: 5.6% | B: -25.0% | C: · | D: ? | E: 13µM*
SMILES: O=C(NC1CCCCC1)NC1CCN(CC(=O)N2CCOCC2)CC1
  A: 2.4% | B: -4.1% | C: 6.0% | D: -8.3% | E: -13.1%
SMILES: CC(C)c1ccc(NC(=O)[C@@H](C)NC(=O)[C@@H]2Cc3ccccc3CN2)cc1
  A: 6.5% | B: -0.5% | C: -14.2% | D: -8.4% | E: ?

Profiles from above:
`CN(Cc1ccccc1)C(=O)c1cccc(NC(=O)Cc2ccc(NC(=O)C3CCCN(C(=O)C4CCCCC4)C3)cc2)c1` (configuration not stated) as listed: TDP1 inh = ·; uPA surface inh = -1.5%; miR-21 FLuc = ·; TDP1 cell CPT = 16.4µM*; DT40 TDP1 no CPT = ?
`CN(Cc1ccccc1)C(=O)c1cccc(NC(=O)Cc2ccc(NC(=O)C3CCCN(C(=O)CCc4ccccc4)C3)cc2)c1` (configuration not stated) as listed: TDP1 inh = ·; uPA surface inh = -19.2%; miR-21 FLuc = ·; TDP1 cell CPT = 23.1µM*; DT40 TDP1 no CPT = 14.6µM*

Next entries follow.
Screens by letter: A = TDP1 inh; B = uPA surface inh; C = miR-21 FLuc; D = TDP1 cell CPT; E = DT40 TDP1 no CPT
SMILES: CCN(CC)C(=O)C1=C(C)N(Cc2ccc(C(C)(C)C)cc2)C(=O)C(CC(=O)NCCCN(C)C)C1 (configuration not stated)
  A: · | B: · | C: · | D: -8.2% | E: -4.5%
SMILES: CCN(CC)CCOC(=O)c1ccc(NC(=O)c2cc3cc(OC)ccc3oc2=O)cc1
  A: 0.6% | B: · | C: 2.6% | D: 0.0411µM* | E: 0.0058µM*
SMILES: CCN(CC)CCOC(=O)c1ccc(NC(=O)c2cc3cccc(OC)c3oc2=O)cc1
  A: 9.3% | B: · | C: -46.0% | D: 20.6µM* | E: ?
SMILES: COc1ccc2oc(=O)c(/C(N)=N/NC(=O)c3ccncc3)cc2c1
  A: 50.1µM* | B: 2.0% | C: -3.9% | D: -1.2% | E: -27.2%
SMILES: Cc1cc(CNC(=O)CC2C(=O)NCCN2Cc2ccc(-c3ccccc3)cc2)nn1C (configuration not stated)
  A: 6.0% | B: 3.5% | C: 0.1% | D: ? | E: ?
SMILES: CCOc1ccc(N2C(=O)CS/C2=N/NC(=O)COc2ccc3ccccc3c2)cc1
  A: 2.9% | B: 2.8% | C: -0.6% | D: ? | E: ?
SMILES: Cc1ccc(C2(c3noc(CN(C)CCO)n3)CCCC2)cc1
  A: 2.4% | B: 2.7% | C: -5.1% | D: -22.8% | E: ?
SMILES: COc1cc(C(=O)N/C(=C\c2cn(C)c3ccccc23)C(=O)N2CCN(C)CC2)cc(OC)c1OC
  A: · | B: -5.2% | C: 4.8% | D: -3.0% | E: -0.1%
SMILES: CNC(C)c1ccc(S(N)(=O)=O)cc1 (configuration not stated)
  A: 1.8% | B: -8.1% | C: -0.9% | D: -15.5% | E: ?

Source: PubChem BioAssay
